Laboratory results taken from patent publication US20210278391A1, “COMPOSITIONS AND METHODS FOR TREATING CARDIOVASCULAR AND METABOLIC CONDITIONS” (The Regents of the University of California, priority 2017, published 2021).

Test system: normal heart function
Conditions: sham-operated mice

Q: Which results are given for `O=C(O)c1sc2cc(Cl)ccc2c1Cl` [BT2, 3,6-dichlorobenzo[b]thiophene-2-carboxylic acid]?
A: mice body weight (BT2 6 weeks): not affected; toxicity on normal heart function and body weight (BT2 6 weeks): no toxicity; EF and LVIDs (BT2 6 weeks daily oral gavage vs vehicle): no significant changes
